Where two headings read alike, the source gives them in different places.
Legend:
Assay in all cases: cell-based or functional assay
[1] = molecular target: plant expressed recombinant human DNase I (prh DNase I) (human) (UniProt P24855)
[2] = molecular target: Pulmozyme (dornase alfa), recombinant human DNase I expressed in CHO cells (human) (UniProt P24855)
[3] = molecular target: plant expressed recombinant human DNase I (prh DNase I) (human) (UniProt P24855); remark: listed apart in the source
[4] = molecular target: Pulmozyme (dornase alfa), recombinant human DNase I expressed in CHO cells (human) (UniProt P24855); remark: listed apart in the source

Q: For “human non-muscle actin (Cytoskeleton; cat No. APHL99), G-actin (from UniProt P60709 2-375)”, which IC50 (µg/ml) of human G-actin for inhibition of DNase I catalytic activity, Methyl Green assay; Prh DNase I [1] is on record?
A: 1.82 µg/mL

Q: And the IC50 (µg/ml) of human G-actin for inhibition of DNase I catalytic activity, Methyl Green assay; Pulmozyme [2]?
A: 0.687 µg/mL

Q: And the IC50 (µg/ml) of human G-actin for inhibition of DNase I catalytic activity, Methyl Green assay; Prh DNase I batch 1 [3]?
A: 1.71 µg/mL

Q: What about the IC50 (µg/ml) of human G-actin for inhibition of DNase I catalytic activity, Methyl Green assay; Prh DNase I batch 2 [3] of the same substance?
A: 1.85 µg/mL

Q: And the IC50 (µg/ml) of human G-actin for inhibition of DNase I catalytic activity, Methyl Green assay; Pulmozyme [4]?
A: 0.546 µg/mL
